For 1 molecule, IC50 results are on record in paper PMC2852430 (Biochemistry, 2010).

Sequences of proteins named here, by UniProt entry; tags and fusion partners are left off.
UniProt P09207, whole entry: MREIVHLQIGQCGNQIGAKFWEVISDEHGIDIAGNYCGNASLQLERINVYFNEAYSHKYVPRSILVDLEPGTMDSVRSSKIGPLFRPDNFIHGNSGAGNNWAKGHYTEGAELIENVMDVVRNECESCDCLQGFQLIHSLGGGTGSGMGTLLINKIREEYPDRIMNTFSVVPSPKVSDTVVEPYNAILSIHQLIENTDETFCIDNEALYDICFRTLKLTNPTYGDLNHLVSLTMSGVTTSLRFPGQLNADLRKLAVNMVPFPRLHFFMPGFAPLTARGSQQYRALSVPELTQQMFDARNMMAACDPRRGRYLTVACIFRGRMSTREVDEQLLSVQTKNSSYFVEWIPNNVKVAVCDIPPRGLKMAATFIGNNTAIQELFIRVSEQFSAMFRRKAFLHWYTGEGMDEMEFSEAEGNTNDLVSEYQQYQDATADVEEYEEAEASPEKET

This assay addresses chicken erythrocyte tubulin (CeTb), ~95% βVI (Gallus gallus, UniProt P09207). Nature of the assay: biochemical.

A word on the IC50: it is the concentration that inhibits the measured activity by half. Read a high IC50 as a need for much substance.

In turn, `COC(=O)Nc1nc2ccc(C(=O)c3cccs3)cc2[nH]1` [Nocodazole, nocodazole] gave an IC50 of 87 ± 2 µM.
